pIC50: −log10 of the molar value.
How the values were obtained:
IDE [1] = biological target: T1, IDE (Homo sapiens, UniProt P14735); format: biochemical; conditions: initial test at 500 uM
T1 construct: made in house; host or cells: bacteria
T1 sequence (P14735 1-1019): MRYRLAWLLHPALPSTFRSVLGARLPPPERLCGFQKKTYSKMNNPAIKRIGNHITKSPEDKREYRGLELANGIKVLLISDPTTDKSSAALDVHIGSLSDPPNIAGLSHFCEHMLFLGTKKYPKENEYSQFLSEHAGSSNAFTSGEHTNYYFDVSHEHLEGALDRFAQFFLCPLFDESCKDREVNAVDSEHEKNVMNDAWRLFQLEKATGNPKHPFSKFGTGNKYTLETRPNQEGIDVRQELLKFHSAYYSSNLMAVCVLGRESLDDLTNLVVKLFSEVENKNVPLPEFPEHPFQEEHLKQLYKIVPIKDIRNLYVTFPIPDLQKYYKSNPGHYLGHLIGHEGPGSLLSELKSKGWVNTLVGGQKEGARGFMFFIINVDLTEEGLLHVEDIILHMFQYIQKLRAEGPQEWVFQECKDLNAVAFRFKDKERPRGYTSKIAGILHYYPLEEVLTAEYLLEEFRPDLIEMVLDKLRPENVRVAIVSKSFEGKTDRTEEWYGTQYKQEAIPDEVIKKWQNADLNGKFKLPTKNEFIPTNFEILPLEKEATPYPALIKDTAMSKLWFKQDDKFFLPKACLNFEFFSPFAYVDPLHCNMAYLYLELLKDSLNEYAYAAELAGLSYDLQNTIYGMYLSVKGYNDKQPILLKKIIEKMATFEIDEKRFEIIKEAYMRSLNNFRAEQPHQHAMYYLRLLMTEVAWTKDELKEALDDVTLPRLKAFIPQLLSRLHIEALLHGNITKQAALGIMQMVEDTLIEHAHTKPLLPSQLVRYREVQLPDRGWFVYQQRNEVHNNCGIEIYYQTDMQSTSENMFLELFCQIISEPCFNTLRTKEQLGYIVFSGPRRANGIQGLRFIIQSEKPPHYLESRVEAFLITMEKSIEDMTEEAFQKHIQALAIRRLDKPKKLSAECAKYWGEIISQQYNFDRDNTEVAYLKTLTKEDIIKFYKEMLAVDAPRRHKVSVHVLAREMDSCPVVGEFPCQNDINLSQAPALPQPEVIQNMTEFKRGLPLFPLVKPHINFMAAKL

IDE [2] = biological target: T1, IDE; assay: Vulnerability of peptides to degradation by IDE: 0 vs 4 h pre-incubation, then FRET1 assay; format: biochemical; conditions: 0-hr incubation (immediately after combining enzyme and peptide), individual runs

| pIC50 (IDE [2]) | Molecule | IC50 <500 uM? (IDE [1]) |
| --- | --- | --- |
| – | WCYPHCVT [P12-3C] | YES |
| 3.68 | CC(=O)N[C@@H](Cc1c[nH]c2ccccc12)C(=O)N[C@@H](CC(=O)O)C(=O)N[C@@H](Cc1ccccc1)C(=O)N[C@@H](CCCNC(=N)N)C(=O)N[C@@H](CCC(N)=O)C(=O)N[C@@H](Cc1c[nH]c2ccccc12)C(=O)N[C@@H](Cc1c[nH]c2ccccc12)C(=O)N[C@@H](CCC(N)=O)C(N)=O [P12-1D] | – |
| – | LPWCTPHC [P12-3D] | YES |

From paper PMC5814047, “Peptidic inhibitors of insulin-degrading enzyme with potential for dermatological applications discovered via phage display” (PLoS ONE, 2018)
